Measured values from patent US9771332B2, “2-thiopyrimidinones” (Pfizer Inc., priority 2015, dated 2017).

By UniProt entry, the sequences of proteins in these tests, tags left out. Residues count along the entry.
UniProt P05164, 279-745 limits assumed: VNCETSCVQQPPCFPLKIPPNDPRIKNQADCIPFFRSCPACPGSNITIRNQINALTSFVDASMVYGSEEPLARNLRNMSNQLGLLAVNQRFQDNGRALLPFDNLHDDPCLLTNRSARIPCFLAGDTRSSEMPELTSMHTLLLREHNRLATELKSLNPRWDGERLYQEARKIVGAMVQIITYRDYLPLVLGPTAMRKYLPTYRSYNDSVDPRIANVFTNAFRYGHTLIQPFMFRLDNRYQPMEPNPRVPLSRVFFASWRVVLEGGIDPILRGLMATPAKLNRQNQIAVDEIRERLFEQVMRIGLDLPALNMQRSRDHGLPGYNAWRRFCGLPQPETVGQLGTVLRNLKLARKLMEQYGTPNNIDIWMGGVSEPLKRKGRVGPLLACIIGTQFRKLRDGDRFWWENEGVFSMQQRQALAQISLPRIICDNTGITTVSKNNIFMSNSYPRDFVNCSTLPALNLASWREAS
UniProt P05164, 165-273 limits assumed: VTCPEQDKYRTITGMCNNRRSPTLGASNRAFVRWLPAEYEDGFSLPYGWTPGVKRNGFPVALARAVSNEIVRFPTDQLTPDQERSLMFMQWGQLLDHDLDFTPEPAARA

Target: T1, MPO (Homo sapiens, UniProt P05164)
T1 construct: endogenous in cells; host or cells: human whole blood leukocytes, LPS-stimulated
Test: Human Whole Blood Assay for Irreversible Inhibition of MPO
Format: cell-based
Settings: LPS-stimulated human whole blood, 4 hour incubation; irreversible inhibition of active MPO
Protocol: To measure the inhibition of MPO activity in a biological system in the present invention, bioassays were performed with human whole blood that was collected from medication-free, human volunteers in heparin treated tubes (APP Pharmaceuticals, LLC, cat # NDC#63323-047-10, #4710). Blood was aliquoted and treated with different concentrations of the MPO inhibitor or vehicle control and co-treated with or without bacterial lipopolysaccharide (LPS, InVivogen) to stimulate blood leukocytes to simultaneously generate H2O2 (a required MPO substrate) and the release of MPO. After a 4 hour incubation at room temperature the plasma fraction was collected following a 2000×g centrifugation at 4° C.
The plasma fraction was divided in two for analysis of total MPO and active MPO. The total MPO content was determined using a standard sandwich ELISA (capture and detection antibodies: Cell Sciences, Cat# HP9048, and Cell Sciences, Cat# HM2164, clone 266-6K1) and calculated relative to a standard curve of purified MPO (myeloperoxidase, Calbiochem, cat#475911) that was prepared by dilution in the autologous donor plasma. The MPO activity is determined by capturing the total MPO from plasma using the capture step as described for the above ELISA method. […]

An IC50 of 1900 nM was found for COc1ccc(Cl)cc1-c1cc(=O)[nH]c(=S)n1CC(N)=O [F, 2-(6-(5-chloro-2-methoxyphenyl)-4-oxo-2-thioxo-3,4-dihydropyrimidin-1(2H)-yl)acetamide] in this work.
